The text below walks through data of ChEMBL document CHEMBL1157450, “Potent and selective small-molecule human urotensin-II antagonists with improved pharmacokinetic profiles” (Bioorg Med Chem Lett, 2008).

Protein sequences, listed by entry. Tags and fused reporters are not part of them. Lines headed by an entry give the natural chain unless they say otherwise; changes in a name come on top.
UniProt P41145: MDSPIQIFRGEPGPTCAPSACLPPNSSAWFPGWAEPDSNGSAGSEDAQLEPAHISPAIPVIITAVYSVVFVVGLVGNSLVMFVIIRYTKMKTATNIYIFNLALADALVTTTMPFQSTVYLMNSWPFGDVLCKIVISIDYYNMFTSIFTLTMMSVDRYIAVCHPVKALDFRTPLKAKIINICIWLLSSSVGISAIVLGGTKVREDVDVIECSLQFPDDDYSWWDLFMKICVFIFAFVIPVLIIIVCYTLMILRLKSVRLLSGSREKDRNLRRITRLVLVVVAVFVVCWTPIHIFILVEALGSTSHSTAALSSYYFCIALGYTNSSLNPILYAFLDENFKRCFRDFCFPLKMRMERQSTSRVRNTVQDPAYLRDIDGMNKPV

pEC50: −log10 of the molar value.

This assay concerns the target Kappa-type opioid receptor (Homo sapiens, UniProt P41145). The assay is described as follows: Agonist activity at kappa opioid receptor. In kind it is functional.

Broadly, the pEC50 is −log10 of the EC50, conventionally taken in molar units. Compound `CN(C(=O)Cc1ccc(Cl)c(Cl)c1)[C@H](CN1CCCC1)c1ccccc1` [ICI-199,441] gave a pEC50 of 9.40.
